The chains behind the UniProt entries cited, without tags or fusion partners.
UniProt P31389, whole entry: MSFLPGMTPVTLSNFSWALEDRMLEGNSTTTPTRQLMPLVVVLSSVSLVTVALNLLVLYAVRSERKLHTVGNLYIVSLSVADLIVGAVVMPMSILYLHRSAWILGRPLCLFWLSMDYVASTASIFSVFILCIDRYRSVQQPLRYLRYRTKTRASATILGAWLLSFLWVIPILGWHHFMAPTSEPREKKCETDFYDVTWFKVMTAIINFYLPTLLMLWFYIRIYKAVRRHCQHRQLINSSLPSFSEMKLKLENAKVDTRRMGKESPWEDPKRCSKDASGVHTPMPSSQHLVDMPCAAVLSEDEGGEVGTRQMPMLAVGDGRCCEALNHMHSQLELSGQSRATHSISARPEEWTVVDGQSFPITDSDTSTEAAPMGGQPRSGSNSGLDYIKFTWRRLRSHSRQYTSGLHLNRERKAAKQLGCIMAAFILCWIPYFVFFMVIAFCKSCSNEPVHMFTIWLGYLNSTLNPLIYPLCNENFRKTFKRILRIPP

According to US5302602A, “Tricyclic thromboxane A2 antagonists” (Kyowa Hakko Kogyo Co., Ltd., priority 1987, dated 1994):

Biological target: T1, histamine H1 receptor (Cavia porcellus, UniProt P31389)
T1 construct: from tissue; host or cells: guinea pig cerebellum membranes
Test: Binding study using 3H-pyrilamine (histamine H1 receptor binding)
Design: species or system guinea pig
Settings: read-out: (%) Inhibition (3H-pyrilamine binding)
Description: Receptor binding was determined by the method of chang et al. [J. Neurochem., 32, 1953 (1979)].
The cerebellum of guinea pig was suspended in a 40-fold amount (V/W) of chilled 50 mM phosphate buffer (pH 7.5) with Polytron Homogenizer (Kinematica Co., Ltd.). The suspension was centrifuged (35,500×g, 10 minutes). The resulting precipitates were resuspended in an equal amount of fresh buffer followed by centrifugation. A 100-fold amount (V/W) of chilled buffer was added to the final precipitates.
To 1 ml of the membrane suspension adjusted as described above were added 50 μl of tritium-labeled pyrilamine (^3 H-pyrilamine; NEN Co., Ltd.) and 50 μl of a test compound. […] Hereafter procedures were performed in a manner similar to the TXA2 receptor binding test to determine radioactivity.
An inhibitory activity of the test compound against H1 receptor was calculated by the following equation. […]
Amount of the total binding is an amount of ^3 H-pyrilamine-bound radioactivity in the absence of a test compound.
The amount of non-specific binding is an amount of ^3 H-pyrilamine-bound radioactivity in the presence of 3 μM Astemizole (manufactured by Janesen Pharmaceutics).
The amount bound in the presence of a test compound is an amount of ^3 H-pyrilamine-bound radioactivity in the presence of a test compound in various concentrations.

Which inhibition at 1 µM does the source give for `CN1CCC(=C2c3ccccc3CC(=O)c3sccc32)CC1` [Ketotifen, reference compound] here?
The inhibition at 1 µM was 100%.
